Test results published in the NIST ThermoML archive (doi:10.1016/j.fluid.2018.09.026).
“And” between values parts separate entries of the source, which are not always exact repeats. Identical values can stand only once.

Conditions: Liquid; for mass density: Vibrating tube method; for viscosity: Vibrating wire viscometry

OCCOCCOCCOCCO [tetraethylene glycol]
Conditions | mass density [kg/m3] | viscosity
283.15 K, 100 kPa | 1130.1 | –
283.15 K, 630 kPa | 1130.3 | –
283.15 K, 1170 kPa | 1130.2 | –
283.15 K, 1640 kPa | 1130.8 | –
283.15 K, 2110 kPa | 1131 | –
283.15 K, 3060 kPa | 1131.4 | –
283.15 K, 5060 kPa | 1132.2 | –
283.15 K, 7000 kPa | 1133.1 | –
283.15 K, 9990 kPa | 1134.3 | –
283.15 K, 14800 kPa | 1136.3 | –
283.15 K, 19770 kPa | 1138.4 | –
283.15 K, 24630 kPa | 1140.4 | –
283.15 K, 29550 kPa | 1142.3 | –
283.15 K, 34530 kPa | 1144.2 | –
283.15 K, 39370 kPa | 1146.1 | –
283.15 K, 44340 kPa | 1147.9 | –
283.15 K, 49210 kPa | 1149.7 | –
283.15 K, 54130 kPa | 1151.5 | –
283.15 K, 59040 kPa | 1153.3 | –
283.15 K, 63940 kPa | 1155 | –
283.15 K, 68790 kPa | 1156.7 | –
293.15 K, 100 kPa | 1122 | –
293.15 K, 570 kPa | 1122.2 | –
293.15 K, 1090 kPa | 1122.4 | –
293.15 K, 1480 kPa | 1122.6 | –
293.15 K, 2030 kPa | 1122.8 | –
293.15 K, 3030 kPa | 1123.3 | –
293.15 K, 5050 kPa | 1124.2 | –
293.15 K, 7090 kPa | 1125.1 | –
293.15 K, 9890 kPa | 1126.3 | –
293.15 K, 14910 kPa | 1128.5 | –
293.15 K, 19720 kPa | 1130.5 | –
293.15 K, 24600 kPa | 1132.6 | –
293.15 K, 29670 kPa | 1134.6 | –
293.15 K, 34600 kPa | 1136.6 | –
293.15 K, 39380 kPa | 1138.5 | –
293.15 K, 44310 kPa | 1140.4 | –
293.15 K, 49240 kPa | 1142.3 | –
293.15 K, 54080 kPa | 1144.1 | –
293.15 K, 58950 kPa | 1145.9 | –
293.15 K, 63910 kPa | 1147.7 | –
293.15 K, 68760 kPa | 1149.4 | –
293.33 K, 140 kPa | – | 57.76 mPa·s and 57.29 mPa·s and 57.4 mPa·s
293.33 K, 850 kPa | – | 57.59 mPa·s
293.33 K, 870 kPa | – | 57.57 mPa·s and 57.86 mPa·s
293.33 K, 1070 kPa | – | 58.14 mPa·s
293.33 K, 1080 kPa | – | 57.78 mPa·s and 57.85 mPa·s and 57.8 mPa·s
293.33 K, 1090 kPa | – | 57.81 mPa·s
293.33 K, 2170 kPa | – | 58.64 mPa·s and 59.37 mPa·s
293.33 K, 2180 kPa | – | 59.03 mPa·s and 59 mPa·s
293.33 K, 2190 kPa | – | 59.03 mPa·s
293.33 K, 9870 kPa | – | 63.32 mPa·s
293.33 K, 9880 kPa | – | 63.27 mPa·s and 63.47 mPa·s and 63.28 mPa·s
293.33 K, 14950 kPa | – | 67.38 mPa·s and 67.34 mPa·s and 67.39 mPa·s
293.33 K, 14960 kPa | – | 67.22 mPa·s
293.33 K, 19990 kPa | – | 70.54 mPa·s and 70.44 mPa·s
293.33 K, 20000 kPa | – | 70.49 mPa·s [middle of 4 runs]
293.33 K, 30180 kPa | – | 78.02 mPa·s
293.33 K, 30190 kPa | – | 78.07 mPa·s
293.33 K, 30210 kPa | – | 78.32 mPa·s
293.33 K, 30230 kPa | – | 77.85 mPa·s
293.33 K, 50550 kPa | – | 94.79 mPa·s and 94.66 mPa·s
293.33 K, 50560 kPa | – | 94.77 mPa·s
293.33 K, 50570 kPa | – | 94.4 mPa·s and 94.71 mPa·s
293.33 K, 70170 kPa | – | 114.1 mPa·s
293.33 K, 70200 kPa | – | 114.1 mPa·s
293.33 K, 70270 kPa | – | 114.6 mPa·s
293.33 K, 70300 kPa | – | 115.3 mPa·s
293.33 K, 70400 kPa | – | 115.1 mPa·s
303.15 K, 100 kPa | 1114 | –
303.15 K, 630 kPa | 1114.2 | –
303.15 K, 1200 kPa | 1114.5 | –
303.15 K, 1610 kPa | 1114.7 | –
303.15 K, 2120 kPa | 1114.9 | –
303.15 K, 3090 kPa | 1115.4 | –
303.15 K, 5080 kPa | 1116.3 | –
303.15 K, 7050 kPa | 1117.2 | –
303.15 K, 10000 kPa | 1118.5 | –
303.15 K, 14920 kPa | 1120.8 | –
303.15 K, 19740 kPa | 1122.9 | –
303.15 K, 24580 kPa | 1125 | –
303.15 K, 29520 kPa | 1127.1 | –
303.15 K, 34410 kPa | 1129.1 | –
303.15 K, 39420 kPa | 1131.2 | –
303.15 K, 44270 kPa | 1133.1 | –
303.15 K, 49210 kPa | 1135.1 | –
303.15 K, 54140 kPa | 1136.9 | –
303.15 K, 59090 kPa | 1138.8 | –
303.15 K, 63880 kPa | 1140.6 | –
303.15 K, 68800 kPa | 1142.4 | –
312.78 K, 150 kPa | – | 21.98 mPa·s and 22.09 mPa·s
312.78 K, 700 kPa | – | 22.14 mPa·s and 22.13 mPa·s
312.78 K, 1220 kPa | – | 22.49 mPa·s and 22.32 mPa·s and 22.44 mPa·s
312.78 K, 1890 kPa | – | 22.55 mPa·s and 22.58 mPa·s and 22.52 mPa·s
312.78 K, 1900 kPa | – | 22.51 mPa·s and 22.58 mPa·s
312.78 K, 1910 kPa | – | 22.46 mPa·s and 22.52 mPa·s
312.78 K, 1930 kPa | – | 22.5 mPa·s and 22.54 mPa·s
312.78 K, 1940 kPa | – | 22.5 mPa·s and 22.45 mPa·s
312.78 K, 1950 kPa | – | 22.63 mPa·s and 22.55 mPa·s
312.78 K, 1960 kPa | – | 22.58 mPa·s
312.78 K, 5280 kPa | – | 23.19 mPa·s
312.78 K, 5290 kPa | – | 23.22 mPa·s and 23.34 mPa·s and 23.31 mPa·s
312.78 K, 7880 kPa | – | 23.8 mPa·s
312.78 K, 7890 kPa | – | 23.72 mPa·s and 23.79 mPa·s
312.78 K, 7900 kPa | – | 23.76 mPa·s
312.78 K, 7910 kPa | – | 23.69 mPa·s and 23.77 mPa·s
312.78 K, 7930 kPa | – | 23.7 mPa·s and 23.66 mPa·s
312.78 K, 7940 kPa | – | 23.75 mPa·s and 23.77 mPa·s
312.78 K, 7950 kPa | – | 23.8 mPa·s and 23.81 mPa·s
312.78 K, 10530 kPa | – | 24.37 mPa·s
312.78 K, 10540 kPa | – | 24.24 mPa·s
312.78 K, 10550 kPa | – | 24.32 mPa·s and 24.16 mPa·s
312.78 K, 10570 kPa | – | 24.37 mPa·s
312.78 K, 10580 kPa | – | 24.19 mPa·s and 24.25 mPa·s
312.78 K, 10590 kPa | – | 24.17 mPa·s and 24.18 mPa·s and 24.24 mPa·s
312.78 K, 15150 kPa | – | 25.11 mPa·s
312.78 K, 15160 kPa | – | 25.22 mPa·s
312.78 K, 15200 kPa | – | 25.15 mPa·s
312.78 K, 20090 kPa | – | 26.31 mPa·s and 26.47 mPa·s
312.78 K, 20100 kPa | – | 26.49 mPa·s
312.78 K, 20110 kPa | – | 26.49 mPa·s
312.78 K, 20130 kPa | – | 26.5 mPa·s
312.78 K, 20150 kPa | – | 26.38 mPa·s
312.78 K, 20240 kPa | – | 26.45 mPa·s
312.78 K, 20260 kPa | – | 26.54 mPa·s
312.78 K, 20310 kPa | – | 26.56 mPa·s
312.78 K, 20320 kPa | – | 26.42 mPa·s
312.78 K, 29940 kPa | – | 28.24 mPa·s
312.78 K, 29960 kPa | – | 28.43 mPa·s
312.78 K, 50160 kPa | – | 33.44 mPa·s
312.78 K, 50170 kPa | – | 33.56 mPa·s and 33.32 mPa·s and 33.4 mPa·s
312.78 K, 50180 kPa | – | 33.43 mPa·s and 33.35 mPa·s
312.78 K, 50190 kPa | – | 33.62 mPa·s
312.78 K, 69710 kPa | – | 39.17 mPa·s
312.78 K, 69740 kPa | – | 38.93 mPa·s
312.78 K, 69750 kPa | – | 38.88 mPa·s
312.78 K, 69790 kPa | – | 38.97 mPa·s
312.78 K, 69810 kPa | – | 39.04 mPa·s
312.78 K, 69840 kPa | – | 39.01 mPa·s
312.78 K, 69860 kPa | – | 39.09 mPa·s
312.78 K, 69890 kPa | – | 38.83 mPa·s
312.78 K, 69910 kPa | – | 39.02 mPa·s
312.78 K, 69930 kPa | – | 38.99 mPa·s
312.78 K, 69990 kPa | – | 39 mPa·s
312.78 K, 70060 kPa | – | 38.98 mPa·s
312.78 K, 70130 kPa | – | 39.14 mPa·s
313.15 K, 100 kPa | 1106 | –
313.15 K, 570 kPa | 1106.3 | –
313.15 K, 1110 kPa | 1106.5 | –
313.15 K, 1570 kPa | 1106.7 | –
313.15 K, 2100 kPa | 1107 | –
313.15 K, 3080 kPa | 1107.5 | –
313.15 K, 5070 kPa | 1108.4 | –
313.15 K, 7000 kPa | 1109.4 | –
313.15 K, 9960 kPa | 1110.7 | –
313.15 K, 14830 kPa | 1113 | –
313.15 K, 19730 kPa | 1115.2 | –
313.15 K, 24720 kPa | 1117.5 | –
313.15 K, 29640 kPa | 1119.6 | –
313.15 K, 34400 kPa | 1121.8 | –
313.15 K, 39380 kPa | 1123.8 | –
313.15 K, 44210 kPa | 1125.9 | –
313.15 K, 49240 kPa | 1127.8 | –
313.15 K, 54040 kPa | 1129.8 | –
313.15 K, 59030 kPa | 1131.7 | –
313.15 K, 63920 kPa | 1133.6 | –
313.15 K, 68770 kPa | 1135.4 | –
323.15 K, 100 kPa | 1098 | –
323.15 K, 590 kPa | 1098.3 | –
323.15 K, 1180 kPa | 1098.5 | –
